ChEMBL document CHEMBL4507293 (2021)

The chains behind the UniProt entries cited, without tags or fusion partners.
UniProt Q92918, whole entry, looked up: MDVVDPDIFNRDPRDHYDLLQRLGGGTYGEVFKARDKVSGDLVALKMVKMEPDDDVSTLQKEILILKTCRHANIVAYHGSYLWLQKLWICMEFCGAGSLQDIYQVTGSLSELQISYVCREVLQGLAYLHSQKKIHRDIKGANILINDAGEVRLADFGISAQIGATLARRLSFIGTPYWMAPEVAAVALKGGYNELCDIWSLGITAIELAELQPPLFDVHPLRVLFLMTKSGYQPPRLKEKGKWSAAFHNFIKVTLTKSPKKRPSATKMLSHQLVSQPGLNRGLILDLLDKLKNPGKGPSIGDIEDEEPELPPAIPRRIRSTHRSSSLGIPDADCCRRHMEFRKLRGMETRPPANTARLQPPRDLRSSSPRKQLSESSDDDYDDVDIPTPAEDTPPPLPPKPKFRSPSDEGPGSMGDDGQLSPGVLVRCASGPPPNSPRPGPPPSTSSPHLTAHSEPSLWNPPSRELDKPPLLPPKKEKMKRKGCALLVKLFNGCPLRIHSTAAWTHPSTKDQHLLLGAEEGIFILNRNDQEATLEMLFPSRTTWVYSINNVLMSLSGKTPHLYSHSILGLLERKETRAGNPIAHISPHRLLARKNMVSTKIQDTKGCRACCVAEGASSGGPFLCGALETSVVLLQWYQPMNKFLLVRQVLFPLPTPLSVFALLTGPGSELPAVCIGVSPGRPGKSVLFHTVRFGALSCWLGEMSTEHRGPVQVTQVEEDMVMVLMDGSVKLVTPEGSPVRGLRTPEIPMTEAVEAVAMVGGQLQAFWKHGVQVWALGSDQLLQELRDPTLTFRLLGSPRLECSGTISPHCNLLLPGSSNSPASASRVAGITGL
Phosphatidylinositol 4,5-bisphosphate 3-kinase catalytic subunit alpha isoform (Homo sapiens), P42336, UniProt P42336, whole entry H1047L: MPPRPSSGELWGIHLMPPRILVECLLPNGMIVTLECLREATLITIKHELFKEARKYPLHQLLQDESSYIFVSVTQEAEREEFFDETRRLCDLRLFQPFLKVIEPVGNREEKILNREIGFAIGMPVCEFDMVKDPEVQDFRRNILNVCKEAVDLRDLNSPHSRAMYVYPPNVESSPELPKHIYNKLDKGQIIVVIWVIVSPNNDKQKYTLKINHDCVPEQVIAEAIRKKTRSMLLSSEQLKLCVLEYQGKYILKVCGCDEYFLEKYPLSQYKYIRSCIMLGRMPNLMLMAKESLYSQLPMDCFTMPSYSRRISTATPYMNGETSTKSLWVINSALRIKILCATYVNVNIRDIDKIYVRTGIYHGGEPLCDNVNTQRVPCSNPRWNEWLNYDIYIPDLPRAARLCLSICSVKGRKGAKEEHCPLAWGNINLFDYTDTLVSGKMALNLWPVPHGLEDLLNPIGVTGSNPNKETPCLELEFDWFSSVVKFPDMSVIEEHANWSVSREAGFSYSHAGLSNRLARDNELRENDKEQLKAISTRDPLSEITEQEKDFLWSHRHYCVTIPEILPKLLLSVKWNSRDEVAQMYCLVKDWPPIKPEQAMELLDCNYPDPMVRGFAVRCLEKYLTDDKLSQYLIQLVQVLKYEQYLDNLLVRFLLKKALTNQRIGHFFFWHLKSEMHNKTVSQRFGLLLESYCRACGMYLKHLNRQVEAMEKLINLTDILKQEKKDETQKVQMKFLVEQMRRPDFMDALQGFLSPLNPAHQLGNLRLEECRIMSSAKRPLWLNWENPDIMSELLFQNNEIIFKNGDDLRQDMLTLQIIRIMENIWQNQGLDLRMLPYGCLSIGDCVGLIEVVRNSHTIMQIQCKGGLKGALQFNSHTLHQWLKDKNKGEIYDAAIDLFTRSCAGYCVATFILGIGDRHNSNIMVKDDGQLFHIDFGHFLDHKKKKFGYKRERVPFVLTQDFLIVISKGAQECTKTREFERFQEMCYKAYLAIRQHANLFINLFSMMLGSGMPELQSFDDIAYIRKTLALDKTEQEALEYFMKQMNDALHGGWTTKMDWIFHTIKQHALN
UniProt O14578, whole entry: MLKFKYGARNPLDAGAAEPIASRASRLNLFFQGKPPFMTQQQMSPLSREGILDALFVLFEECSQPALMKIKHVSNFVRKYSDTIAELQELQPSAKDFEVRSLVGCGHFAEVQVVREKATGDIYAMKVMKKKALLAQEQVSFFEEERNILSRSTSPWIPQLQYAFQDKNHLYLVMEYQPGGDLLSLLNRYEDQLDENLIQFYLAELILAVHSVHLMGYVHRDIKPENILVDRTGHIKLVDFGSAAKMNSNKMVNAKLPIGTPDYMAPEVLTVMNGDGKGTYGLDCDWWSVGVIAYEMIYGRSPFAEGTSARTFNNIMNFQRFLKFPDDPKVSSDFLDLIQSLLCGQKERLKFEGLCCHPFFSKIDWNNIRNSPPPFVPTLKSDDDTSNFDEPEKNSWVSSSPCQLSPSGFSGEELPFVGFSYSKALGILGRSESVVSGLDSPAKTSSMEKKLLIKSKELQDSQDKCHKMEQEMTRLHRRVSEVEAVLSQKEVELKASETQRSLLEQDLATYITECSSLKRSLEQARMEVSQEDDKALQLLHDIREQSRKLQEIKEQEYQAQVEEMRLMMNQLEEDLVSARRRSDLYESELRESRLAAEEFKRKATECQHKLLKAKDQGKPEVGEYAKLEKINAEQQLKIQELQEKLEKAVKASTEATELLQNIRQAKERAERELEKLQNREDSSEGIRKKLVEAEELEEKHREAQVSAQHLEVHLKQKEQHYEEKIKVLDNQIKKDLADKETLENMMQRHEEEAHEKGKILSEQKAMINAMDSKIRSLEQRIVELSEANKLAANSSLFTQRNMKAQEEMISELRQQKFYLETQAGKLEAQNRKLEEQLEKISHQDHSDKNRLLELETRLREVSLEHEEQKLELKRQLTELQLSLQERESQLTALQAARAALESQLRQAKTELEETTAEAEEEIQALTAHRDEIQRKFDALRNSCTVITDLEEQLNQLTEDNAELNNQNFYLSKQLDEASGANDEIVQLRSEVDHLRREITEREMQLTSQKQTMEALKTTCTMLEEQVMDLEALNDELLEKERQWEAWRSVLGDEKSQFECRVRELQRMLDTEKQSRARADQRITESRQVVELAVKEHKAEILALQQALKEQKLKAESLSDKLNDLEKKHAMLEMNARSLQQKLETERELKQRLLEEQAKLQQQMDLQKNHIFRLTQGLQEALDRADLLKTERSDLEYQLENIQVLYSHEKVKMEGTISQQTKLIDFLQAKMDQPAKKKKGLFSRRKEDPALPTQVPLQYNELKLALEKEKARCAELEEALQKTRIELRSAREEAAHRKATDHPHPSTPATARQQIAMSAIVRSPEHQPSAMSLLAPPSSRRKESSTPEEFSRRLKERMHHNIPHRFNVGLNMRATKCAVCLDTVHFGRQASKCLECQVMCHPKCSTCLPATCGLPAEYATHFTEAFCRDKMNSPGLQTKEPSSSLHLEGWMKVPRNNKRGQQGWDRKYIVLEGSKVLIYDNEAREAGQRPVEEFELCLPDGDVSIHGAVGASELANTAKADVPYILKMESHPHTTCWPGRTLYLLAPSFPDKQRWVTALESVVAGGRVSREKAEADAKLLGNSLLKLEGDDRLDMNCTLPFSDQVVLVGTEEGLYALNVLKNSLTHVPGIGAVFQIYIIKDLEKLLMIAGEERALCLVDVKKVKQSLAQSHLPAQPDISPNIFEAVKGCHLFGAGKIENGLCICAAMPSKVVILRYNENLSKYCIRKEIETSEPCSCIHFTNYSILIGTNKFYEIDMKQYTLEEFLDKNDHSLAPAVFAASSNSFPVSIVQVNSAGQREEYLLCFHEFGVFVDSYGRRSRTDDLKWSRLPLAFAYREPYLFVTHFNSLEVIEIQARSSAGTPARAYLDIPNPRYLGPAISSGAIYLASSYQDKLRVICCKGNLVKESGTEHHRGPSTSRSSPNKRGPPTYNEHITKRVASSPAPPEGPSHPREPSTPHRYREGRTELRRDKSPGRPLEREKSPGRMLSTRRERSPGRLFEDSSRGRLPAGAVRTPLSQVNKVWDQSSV

What was measured:
[1] = target: T1, Mitogen-activated protein kinase kinase kinase 2 (Homo sapiens) (UniProt Q9Y2U5); conditions: Compound concentration 100.0 nM
T1 sequence (whole entry): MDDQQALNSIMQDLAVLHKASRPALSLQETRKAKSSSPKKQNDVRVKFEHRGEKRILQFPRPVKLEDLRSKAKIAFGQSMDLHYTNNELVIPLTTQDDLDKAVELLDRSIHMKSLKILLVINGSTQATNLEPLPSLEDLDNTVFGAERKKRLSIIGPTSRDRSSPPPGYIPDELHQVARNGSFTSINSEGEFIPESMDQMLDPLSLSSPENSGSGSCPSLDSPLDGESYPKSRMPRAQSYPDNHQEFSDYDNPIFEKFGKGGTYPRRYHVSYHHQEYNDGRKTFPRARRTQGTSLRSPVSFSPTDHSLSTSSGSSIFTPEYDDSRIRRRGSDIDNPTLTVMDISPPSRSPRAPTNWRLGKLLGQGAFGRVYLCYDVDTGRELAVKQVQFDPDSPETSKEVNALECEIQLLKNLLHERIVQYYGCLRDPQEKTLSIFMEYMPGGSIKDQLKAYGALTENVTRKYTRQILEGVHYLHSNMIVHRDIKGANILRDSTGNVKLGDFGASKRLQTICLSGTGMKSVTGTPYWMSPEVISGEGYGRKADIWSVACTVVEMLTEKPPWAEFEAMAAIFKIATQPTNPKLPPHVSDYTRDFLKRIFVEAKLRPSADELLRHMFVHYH

[2] = target: Mitogen-activated protein kinase kinase kinase kinase 1 (Homo sapiens) (UniProt Q92918); conditions: Compound concentration 100.0 nM
[3] = target: T2, Phosphatidylinositol 5-phosphate 4-kinase type-2 gamma (Homo sapiens) (UniProt Q8TBX8); conditions: Compound concentration 100.0 nM
T2 sequence (whole entry): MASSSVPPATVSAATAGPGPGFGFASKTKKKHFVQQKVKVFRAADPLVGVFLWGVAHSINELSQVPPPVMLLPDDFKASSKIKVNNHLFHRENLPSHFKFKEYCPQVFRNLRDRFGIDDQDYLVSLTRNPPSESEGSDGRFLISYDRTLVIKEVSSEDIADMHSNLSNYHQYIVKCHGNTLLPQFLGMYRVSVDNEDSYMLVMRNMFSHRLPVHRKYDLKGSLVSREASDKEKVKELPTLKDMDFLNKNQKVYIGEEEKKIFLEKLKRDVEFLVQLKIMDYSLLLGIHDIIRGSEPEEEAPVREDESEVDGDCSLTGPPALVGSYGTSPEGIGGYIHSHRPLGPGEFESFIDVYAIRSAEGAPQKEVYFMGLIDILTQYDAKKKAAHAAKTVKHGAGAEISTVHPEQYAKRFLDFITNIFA

[4] = test system: Phosphatidylinositol 4,5-bisphosphate 3-kinase catalytic subunit alpha isoform (Homo sapiens), P42336 [H1047L]; conditions: Compound concentration 100.0 nM
[5] = target: T3, Serine/threonine-protein kinase ULK1 (Homo sapiens) (UniProt O75385); conditions: Compound concentration 100.0 nM
T3 sequence (whole entry): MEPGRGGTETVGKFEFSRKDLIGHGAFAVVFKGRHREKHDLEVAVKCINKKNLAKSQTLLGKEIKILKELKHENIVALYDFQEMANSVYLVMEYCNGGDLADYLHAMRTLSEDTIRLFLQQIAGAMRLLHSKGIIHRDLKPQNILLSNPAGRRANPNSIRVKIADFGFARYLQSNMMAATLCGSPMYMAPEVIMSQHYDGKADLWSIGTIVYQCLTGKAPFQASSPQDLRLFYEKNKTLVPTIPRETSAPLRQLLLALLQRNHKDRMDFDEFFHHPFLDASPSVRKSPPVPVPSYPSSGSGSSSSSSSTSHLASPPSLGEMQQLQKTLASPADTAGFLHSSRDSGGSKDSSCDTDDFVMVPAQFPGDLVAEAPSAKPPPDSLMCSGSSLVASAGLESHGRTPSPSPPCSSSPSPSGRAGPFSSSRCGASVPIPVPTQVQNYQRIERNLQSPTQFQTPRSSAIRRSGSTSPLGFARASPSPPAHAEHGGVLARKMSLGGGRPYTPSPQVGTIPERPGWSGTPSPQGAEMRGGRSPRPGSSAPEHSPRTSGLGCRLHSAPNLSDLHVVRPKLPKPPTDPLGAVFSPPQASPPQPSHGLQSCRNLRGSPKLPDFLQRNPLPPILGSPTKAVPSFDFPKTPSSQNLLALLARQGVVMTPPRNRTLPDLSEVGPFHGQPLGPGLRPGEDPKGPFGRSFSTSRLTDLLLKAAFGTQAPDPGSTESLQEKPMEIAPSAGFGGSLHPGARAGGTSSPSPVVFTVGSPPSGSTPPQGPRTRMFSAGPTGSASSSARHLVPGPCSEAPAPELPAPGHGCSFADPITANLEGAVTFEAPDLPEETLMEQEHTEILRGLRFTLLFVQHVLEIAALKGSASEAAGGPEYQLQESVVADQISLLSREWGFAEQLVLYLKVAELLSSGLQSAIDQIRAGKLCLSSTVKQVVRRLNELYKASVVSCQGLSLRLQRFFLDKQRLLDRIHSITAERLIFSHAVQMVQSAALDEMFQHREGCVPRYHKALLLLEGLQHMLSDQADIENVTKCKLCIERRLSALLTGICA

[6] = target: Citron Rho-interacting kinase (Homo sapiens) (UniProt O14578); conditions: Compound concentration 100.0 nM
[7] = test system: Cysteinyl leukotriene receptor 2; assay: Leukotriene, Cysteinyl CysLT2 Eurofins-Panlabs radioligand binding assay; conditions: Homo sapiens; Compound concentration 10.0 uM

COCCOc1nc(-c2ccc(Cl)nc2)nc2c1CN(C(=O)c1ncn3ccccc13)CC2 [THPP-1]
inactive: residual activity [1] 92% | residual activity [2] 92% | residual activity [3] 92% | residual activity [4] 92% | residual activity [5] 92% | residual activity [6] 92% | inhibition [7] 8%
